Data published in US7897758B2, “Activators for oligonucleotide and phosphoramidite synthesis” (dated 2011).
Like-named read-outs stand apart in the source and are kept apart here.

Columns and labels:
[1] = Miscibility of activator solutions with deblock- and capping-solutions (visual inspection for precipitates); details: for observation, mixed with Deblock, ratio 1/1: 1/1 v/v; for observation, mixed with Cap A + Cap B / observation, mixed with Fast Cap A + Cap B: activator solution in acetonitrile (0.45 M or 0.5 M as printed); for observation, mixed with Cap A + Cap B / observation, mixed with Fast Cap A + Cap B / observation, mixed with Deblock: ratios 1/9, 1/1 and 9/1 v/v; for observation, mixed with Deblock: activator solution in acetonitrile (0.45 M or 0.5 M as printed) + 3% trichloroacetic acid in dichloromethane
[2] = Acidity (pKa) of 5-substituted 1H-tetrazoles by NaOH titration; details: titration with 0.100 M NaOH in acetonitrile/water 1/1, glass electrode
[3] = Solubility of tetrazole derivatives in acetonitrile (saturated solution, NaOH titration); details: 25° C.; for maximum concentration / solubility in acetonitrile: Example 1
[4] = 25° C., prior-art activators, source not given, cited from earlier work
[5] = prior-art activators, source not given; cited from earlier work
[6] = Hygroscopy: weight gain at 75% relative humidity; details: 8 days
[7] = Coupling reaction of DMT-rA(tac)si-amidite (23) with dT-si (24) in a NMR tube (31P-NMR conversion); details: for time after which the coupling reaction was complete: amidite (23) to product (25), P-NMR
[8] = time 90 sec., ambient temperature, deuterated acetonitrile

Q: With `N#Cc1nc[nH]c1C#N` as the compound, how does the “observation, mixed with Deblock, ratio 1/1” value ([1]; 0.5 M in acetonitrile + 3% trichloroacetic acid in dichloromethane) read?
A: immediate formation of precipitates

Q: And the “observation, mixed with Deblock, ratio 1/1” value ([1]; 0.5 M in acetonitrile + 3% trichloroacetic acid in dichloromethane, listed as 4,5-Dicyanoimidazole)?
A: solid particles

Q: What about the “observation, mixed with Deblock, ratio 1/9” value ([1]; 0.5 M in acetonitrile + 3% trichloroacetic acid in dichloromethane, 1/9 v/v, listed as 4,5-Dicyanoimidazole) of the same compound?
A: precipitate

Q: What about the “observation, mixed with Deblock, ratio 9/1” value ([1]; 0.5 M in acetonitrile + 3% trichloroacetic acid in dichloromethane, 9/1 v/v) of the same compound?
A: ratio 9/1: clear

Q: What about the “observation, mixed with Cap A + Cap B” value [1] of the same compound?
A: clear solution

Q: What about the “observation, mixed with Fast Cap A + Cap B” value [1] of the same compound?
A: clear solution

Q: What does the source list for `c1ccc(-c2nnn[nH]2)cc1`?
A: Acidity pKa [2]: 4.8; Solubility [3]: 0.08 mol/ltr.; maximum concentration / solubility in acetonitrile [3]: 80 mM

Q: Which results are given for `c1ccc(CSc2nnn[nH]2)cc1`?
A: Acidity pKa [2]: 4.2; Solubility [3]: 0.44 mol/ltr.; maximum concentration / solubility in acetonitrile [3]: 440 mM

Q: Which results are given for `O=[N+]([O-])c1ccc(-c2nnn[nH]2)cc1`?
A: maximum concentration / solubility in acetonitrile ([4]; listed as 5-(4-nitrophenyl)-1H-tetrazole (7)): low solubility; maximum concentration / solubility in acetonitrile [4]: 120 mM; pKa-value [5]: 3.7

Q: Which Solubility [3] does the source give for `FC(F)(F)c1cc(-c2nn[nH]n2)cc(C(F)(F)F)c1` here?
A: 0.94 mol/ltr.

Q: And the “maximum concentration / solubility in acetonitrile” value (“maximum concentration / solubility” below) [3]?
A: 940 mM

Q: With 1H-tetrazole as the compound, how does the “maximum concentration / solubility” value [4] read?
A: 450 mM

Q: What about the pKa-value [5] of the same compound?
A: 4.8

Q: And the “observation, mixed with Deblock” value [1]?
A: clear solution

Q: And the “observation, mixed with Cap A + Cap B” value [1]?
A: clear solution

Q: And the “observation, mixed with Fast Cap A + Cap B” value [1]?
A: clear solution

Q: Which “hygroscopy of the solid” value ([6]; 50 g sample, 75% relative humidity) does the source give for `FC(F)(F)c1cc(-c2nnn[nH]2)cc(C(F)(F)F)c1` here?
A: not hygroscopic

Q: What about the weight gained ([6]; 50.013 g dried sample, 75-76% relative humidity, ambient temperature) of the same compound?
A: less than 3 mg

Q: And the “time after which the coupling reaction was complete” value [7]?
A: 5 min

Q: What about the Conversion [7, 8] of the same compound?
A: 73%

Q: And the Conversion ([7]; time 180 sec.)?
A: 79%

Q: And the Conversion ([7]; time 240 sec. (4 minutes))?
A: 94%

Q: And the Conversion ([7]; time 300 sec.)?
A: 100%

Q: What about the “precipitation on mixing with deblock or capping solutions in any ratio” value ([1]; 0.5 M solution in acetonitrile) of the same compound?
A: without concomitant precipitation of solid materials

Q: What about the “observation, mixed with Deblock” value [1] of the same compound?
A: clear solution

Q: And the “observation, mixed with Cap A + Cap B” value [1]?
A: clear solution

Q: And the “observation, mixed with Fast Cap A + Cap B” value [1]?
A: clear solution

Q: Which Acidity pKa [2] does the source give for `CCSc1nnn[nH]1` here?
A: 4.2

Q: And the Solubility [3]?
A: 1.52 mol/ltr.

Q: What about the “maximum concentration / solubility” value [3] of the same compound?
A: 1520 mM

Q: And the “time after which the coupling reaction was complete” value [7]?
A: 17 min

Q: What about the Conversion [7, 8] of the same compound?
A: 64%

Q: What about the Conversion ([7]; time 150 sec. (2.5 minutes)) of the same compound?
A: 75%

Q: What about the Conversion ([7]; time 180 sec.) of the same compound?
A: 78%

Q: And the Conversion ([7]; time 300 sec.)?
A: 87%

Q: And the Conversion ([7]; time 480 sec.)?
A: 91%

Q: What about the Conversion ([7]; time 600 sec.) of the same compound?
A: 96%

Q: What about the Conversion ([7]; time 720 sec.) of the same compound?
A: 96%

Q: And the Conversion ([7]; time 840 sec.)?
A: 97%

Q: What about the Conversion ([7]; time 1020 sec.) of the same compound?
A: 100%
